Experimental data published in patent US20240108738A1 (Bicycle, published 2024).

Sequences of proteins named here, by UniProt entry; tags and fusion partners are left off. Residues count along the entry.
UniProt P08637, 17-208 limits assumed, stated change not applied: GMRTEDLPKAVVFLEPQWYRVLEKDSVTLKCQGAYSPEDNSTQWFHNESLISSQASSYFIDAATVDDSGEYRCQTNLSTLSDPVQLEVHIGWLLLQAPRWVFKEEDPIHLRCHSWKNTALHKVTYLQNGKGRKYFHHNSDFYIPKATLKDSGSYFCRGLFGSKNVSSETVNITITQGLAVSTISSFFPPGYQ

Assays:
[1] = target: T1, human CD16a F176 variant, biotinylated (human, UniProt P08637 17-208, C-terminally biotinylated); test: SPR
T1 construct: supplier is told for the AlphaScreen assay only; also called F Variant; FcγRIIIA F variant
Method: (§1) The SPR analysis was run at 25° C. at a flow rate of 50 μl/min with 60 seconds association and dissociation between 60 and 200 seconds. Data were corrected for DMSO excluded volume effects. All data were double-referenced for blank injections and reference surface using standard processing procedures and data processing and kinetic fitting were performed using Scrubber software, version 2.0c (BioLogic Software). Data were fitted using simple 1:1 binding model allowing for mass transport effects where appropriate.
(§2) For analysis of peptide binding, a Biacore 8k+ instrument was used with a CM5 chip (Cytiva). All experiments were carried out at 25° C. Streptavidin was immobilized on all flow cells by standard amine coupling chemistry. The running buffer was HBS-N(Cytiva, 10 mM HEPES, 0.15 M NaCl, pH 7.4) and the flow rate was 10 μl/min. The carboxymethyl dextran surface was activated with a 1:1 ratio of 0.4 M 1-ethyl-3-(3-dimethylaminopropyl) carbodiimide hydrochloride (EDC)/0.1 M N-hydroxy succinimide (NHS) (Cytiva) for 420s. Streptavidin (ProSpec, cat no. PRO-791) was diluted to 0.2 mg/ml in 10 mM sodium acetate pH 4.5 and was injected onto the chip surface for 600 s. Residual activated groups were blocked with a 420 s injection of 1 M ethanolamine (pH 8.5). The final surface density was 2000-3000 RU. Biotinylated CD16a was diluted to 5 μg/ml in HBS-N and was captured on flow cell 2 only of the streptavidin chip at a flow rate of 10 μl/min to 1500-2500 RU. The buffer was then changed to PBS-P+(Cytiva) supplemented with 0.5-2% DMSO. […] The flow rate was 30 μl/min with 100 s association and 400 s dissociation. Data were corrected for DMSO volume exclusion effects. All data were double-referenced against blank injections and reference surface response using standard processing procedures. Data processing and kinetic fitting was performed using Biacore Insight Evaluation Software with Extended Screening and Characterization Extension (Cytiva). Data were fitted using steady state affinity 1:1 binding model to determine KD. Data were fitted using kinetic 1:1 binding model to determine kinetic constants where appropriate.

[2] = target: T2, human CD16a V176 variant, biotinylated (human, UniProt P08637 17-208, N-terminally biotinylated in-house); test: SPR
T2 construct: supplier is told for the AlphaScreen assay only; also called V Variant; FcγRIIIA V variant
Method: as §1, §2

B1: BCY20373 (peptide)
peptide: ACRWXFSEPCGAWCA
modifications: not fully specified; CiRW[His1Me]FSEPCiiGAWCiii
notes: scaffold TBMT
Work on B1 yielded a Kd [1] of 2700 nM and a Kd [2] of 1020 nM.

B2: BCY20374 (peptide)
peptide: ACRWXFSEPCGAWCA
modifications: not fully specified; CiRW[His3Me]FSEPCiiGAWCiii
notes: scaffold TBMT
For B2, the Kd [1] was 958 nM and the Kd [2] was 799 nM.

B3: BCY19055 (peptide)
peptide: ACRXSVEDPCGAWCA
modifications: not fully specified; CiR[AzaTrp]SVEDPCiiGAWCiii
notes: scaffold TBMT
B3 showed a Kd [2] of 6960 nM.
